Target: hERG channel (Homo sapiens, UniProt Q12809)
Test: in vitro
Details: Average inhibition rate (%) on hERG channel, 100 nM
Source text: In cardiomyocytes, inhibition of the delayed rectifier potassium current (IKr) channel protein encoded by the human Ether-a-go-go Related Gene (hERG) is the most important mechanism by which drugs lead to prolongation of the QT interval. hERG is characterized by a specific molecular structure, which allows it to be inhibited by different structures, leading to severe arrhythmias. Statistically, 25-40% of lead compounds show varying degrees of hERG-related toxicity. Therefore, early evaluation of the effects of compounds on hERG is crucial in the drug development process.
The inhibition rate of compounds on hERG channels was examined by manual membrane clamp technique on HEK293 cell line which is stably expressing hERG ion channels.

Amino acid sequences for entries named in this document (tags omitted). A change or cut given only in a name is not applied to a line headed by its entry.
UniProt Q12809: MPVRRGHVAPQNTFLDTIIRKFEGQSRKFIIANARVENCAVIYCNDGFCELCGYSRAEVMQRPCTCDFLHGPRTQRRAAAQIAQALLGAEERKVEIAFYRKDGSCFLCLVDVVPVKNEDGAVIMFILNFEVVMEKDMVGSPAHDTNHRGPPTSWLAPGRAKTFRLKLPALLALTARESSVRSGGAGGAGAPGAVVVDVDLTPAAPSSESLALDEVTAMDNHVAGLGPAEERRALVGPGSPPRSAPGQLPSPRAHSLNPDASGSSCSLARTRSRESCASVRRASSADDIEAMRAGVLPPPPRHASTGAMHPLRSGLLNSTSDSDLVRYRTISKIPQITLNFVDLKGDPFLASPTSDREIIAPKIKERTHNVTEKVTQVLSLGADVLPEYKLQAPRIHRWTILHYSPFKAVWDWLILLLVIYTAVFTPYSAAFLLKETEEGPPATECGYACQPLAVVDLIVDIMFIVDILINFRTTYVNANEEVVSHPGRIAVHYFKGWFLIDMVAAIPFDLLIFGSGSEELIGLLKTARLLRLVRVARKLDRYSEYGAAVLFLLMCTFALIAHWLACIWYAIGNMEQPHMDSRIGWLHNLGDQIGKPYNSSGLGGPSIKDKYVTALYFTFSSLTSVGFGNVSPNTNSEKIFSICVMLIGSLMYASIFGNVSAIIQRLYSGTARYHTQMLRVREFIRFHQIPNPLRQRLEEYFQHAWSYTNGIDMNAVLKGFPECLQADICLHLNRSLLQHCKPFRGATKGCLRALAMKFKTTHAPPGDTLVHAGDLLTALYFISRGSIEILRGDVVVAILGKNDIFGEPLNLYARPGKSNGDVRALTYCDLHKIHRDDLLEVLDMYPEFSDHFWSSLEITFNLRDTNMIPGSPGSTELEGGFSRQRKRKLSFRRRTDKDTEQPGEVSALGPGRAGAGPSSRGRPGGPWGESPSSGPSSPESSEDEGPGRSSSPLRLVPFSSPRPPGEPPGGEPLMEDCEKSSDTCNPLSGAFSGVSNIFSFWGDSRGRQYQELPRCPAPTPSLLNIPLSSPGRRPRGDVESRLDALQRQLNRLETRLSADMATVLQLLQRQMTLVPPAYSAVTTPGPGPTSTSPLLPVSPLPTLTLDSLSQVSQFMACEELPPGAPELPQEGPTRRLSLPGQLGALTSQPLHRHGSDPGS

With `COc1cc(N)c(Cl)cc1C(=O)NC1CCN(CCCOc2ccc(F)cc2)CC1OC` (stereo not shown) [Cisapride, reference compound] as the compound, how does the inhibition at 0.1 µM read?
Its inhibition at 0.1 µM is 86.6%.
